The target in the assay is T1, DmUCP4A (Drosophila melanogaster, UniProt Q9VX14).
T1 construct: gene Ucp4A
T1 sequence (Q9VX14 1-340): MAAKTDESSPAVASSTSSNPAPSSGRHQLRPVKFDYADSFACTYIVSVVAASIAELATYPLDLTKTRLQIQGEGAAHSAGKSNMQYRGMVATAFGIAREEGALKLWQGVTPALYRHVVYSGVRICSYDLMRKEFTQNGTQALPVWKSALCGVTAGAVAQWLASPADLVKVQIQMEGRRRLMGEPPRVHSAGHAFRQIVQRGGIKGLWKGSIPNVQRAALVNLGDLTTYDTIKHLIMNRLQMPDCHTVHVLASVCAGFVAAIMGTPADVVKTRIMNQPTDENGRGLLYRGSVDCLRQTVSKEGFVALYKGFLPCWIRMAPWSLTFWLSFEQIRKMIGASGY
The conditions noted are these: 0.3 mM external [14C]aspartate, 10 mM internal aspartate, pH 6.5, 25 °C, 1 min; thiol reagent added 2 min before substrate; covalent.

Experimental findings from article PMC8834685 (International Journal of Molecular Sciences, 2022) are described below.

For the compound `COC([CH2][Hg+])CNC(=O)c1ccccc1OCC(=O)O` (stereo not shown) [mersalyl], the “% inhibition at 10 μM” value is “thiol reagents such as mersalyl, pCMBS, and pHMB were powerful inhibitors of DmUCP4A transport function”.
